Source: US20190352602A1, “Methods and Compositions for Producing Germ Cells from Bone Marrow Derived Germline Stem Cells” (The General Hospital Corporation, priority 2004, published 2019)

Tested on: oocyte-containing follicles in ovaries
Test: Bone marrow transplantation (BMT) in adult wild-type female mice sterilized by cyclophosphamide and busulphan; ovarian follicle analysis

## cyclophosphamide and busulphan
60 days after busulfan and cyclophosphamide on day 42 postpartum, without subsequent BMT, n=5
  mice completely lacking immature oocytes: 4 of the 5
Two months after 120 mg kg^-1 cyclophosphamide and 12 mg kg^-1 busulphan alone, no BMT
  immature oocytes or follicles detected in the ovaries: very few, if any, immature oocytes or follicles were detected
